Consider 21 compounds from patent US20090099157A1, “TETRAHYDRO-PYRAZOLO-PYRIDINE THIOETHER MODULATORS OF CATHEPSIN S” (priority 2007, published 2009).

The chains behind the UniProt entries cited, without tags or fusion partners. Residues count along the entry.
UniProt P25774, 115-331: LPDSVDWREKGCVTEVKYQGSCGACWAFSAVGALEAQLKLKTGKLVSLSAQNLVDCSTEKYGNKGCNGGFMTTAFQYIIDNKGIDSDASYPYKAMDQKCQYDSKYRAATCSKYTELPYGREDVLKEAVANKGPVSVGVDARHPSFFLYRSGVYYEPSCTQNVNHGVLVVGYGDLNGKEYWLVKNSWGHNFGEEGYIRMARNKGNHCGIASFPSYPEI

Some results are limits rather than exact numbers.

The target in this experiment is Recombinant human cathepsin S (CatS) (Homo sapiens, UniProt P25774). Description: biochemical.

With `CS(=O)(=O)NCCSc1cc(-c2nn(CC(O)CN3CCCCC3)c3c2CN(S(C)(=O)=O)CC3)ccc1C(F)(F)F` (stereo not drawn) [Example 366, N-[2-({5-[1-(2-Hydroxy-3-piperidin-1-ylpropyl)-5-(methylsulfonyl)-4,5,6,7-tetrahydro-1H-pyrazolo[4,3-c]pyridin-3-yl]-2-(trifluoromethyl)phenyl}sulfanyl)ethyl]methanesulfonamide], the IC50 turned out to be 550 nM. Turning to `CS(=O)(=O)N1CCc2c(c(-c3ccc(C(F)(F)F)c(SCCN4CCC(F)CC4)c3)nn2CC(O)CN2CCC(c3n[nH]c(=O)[nH]3)CC2)C1` (stereo not drawn) [Example 758, 5-[1-(3-{3-[3-{[2-(4-Fluoropiperidin-1-yl)ethyl]sulfanyl}-4-(trifluoromethyl)phenyl]-5-(methylsulfonyl)-4,5,6,7-tetrahydro-1H-pyrazolo[4,3-c]pyridin-1-yl}-2-hydroxypropyl)piperidin-4-yl]-2,4-dihydro-3H-1,2,4-triazol-3-one], the IC50 stood at 190 nM.

Consider `CS(=O)(=O)N1CCc2c(c(-c3ccc(C(F)(F)F)c(SCCN4C=NCCC4)c3)nn2C[C@@H](O)CN2CCOCC2)C1` [Example 347, (2S)-1-{3-[3-{[2-(5,6-Dihydropyrimidin-1(4H)-yl)ethyl]sulfanyl}-4-(trifluoromethyl)phenyl]-5-(methylsulfonyl)-4,5,6,7-tetrahydro-1H-pyrazolo[4,3-c]pyridin-1-yl}-3-morpholin-4-ylpropan-2-ol], for which the IC50 is 1850 nM. Turning to `CC1CCN(C[C@H](O)Cn2nc(-c3ccc(C(F)(F)F)c(SCCN4CCCC(F)(F)C4)c3)c3c2CCN(S(C)(=O)=O)C3)CC1` [Example 142, (2S)-1-(3-{3-[2-(3,3-Difluoro-piperidin-1-yl)-ethylsulfanyl]-4-trifluoromethyl-phenyl}-5-methanesulfonyl-4,5,6,7-tetrahydro-pyrazolo[4,3-c]pyridin-1-yl)-3-(4-methylpiperidin-1-yl)-propan-2-ol], the IC50 was 40 nM. For `COCC(=O)N1CCc2c(c(-c3ccc(C(F)(F)F)c(SCCN4CCCC4)c3)nn2CC(O)CN2CCC(NC(=O)CO)CC2)C1` (stereo not drawn) [Example 586, 2-Hydroxy-N-{1-[2-hydroxy-3-(5-[(methyloxy)acetyl]-3-{3-[(2-pyrrolidin-1-ylethyl)sulfanyl]-4-(trifluoromethyl)phenyl}-4,5,6,7-tetrahydro-1H-pyrazolo[4,3-c]pyridin-1-yl)propyl]piperidin-4-yl}acetamide], the IC50 was found to be 490 nM. Regarding `CN(C(=O)CSc1cc(-c2nn(CCCN3CCC(N4CCCC4=O)CC3)c3c2CN(S(C)(=O)=O)CC3)ccc1C(F)(F)F)C1CCCCC1` [Example 101, N-Cyclohexyl-2-[5-(5-methanesulfonyl-1-{3-[4-(2-oxo-pyrrolidin-1-yl)-piperidin-1-yl]-propyl}-4,5,6,7-tetrahydro-1H-pyrazolo[4,3-c]pyridin-3-yl)-2-trifluoromethylphenylsulfanyl]-N-methyl-acetamide], the IC50 came out at 360 nM. `CS(=O)(=O)N1CCc2c(c(-c3ccc(C(F)(F)F)c(SCCN4CCOCC4)c3)nn2CC(O)CN2CCC(N3CCCC3=O)CC2)C1` (stereo not drawn) [Example 181, 1-(1-{2-Hydroxy-3-[5-(methylsulfonyl)-3-{3-[(2-morpholin-4-ylethyl)sulfanyl]-4-(trifluoromethyl)phenyl}-4,5,6,7-tetrahydro-1H-pyrazolo[4,3-c]pyridin-1-yl]propyl}piperidin-4-yl)pyrrolidin-2-one]: the IC50 stood at 110 nM.

`COCC(=O)N1CCc2c(c(-c3ccc(C(F)(F)F)c(SCCN4CCC(F)CC4)c3)nn2CC(O)CN2CCCCC2)C1` (stereo not drawn) [Example 372, 1-{3-[3-{[2-(4-Fluoropiperidin-1-yl)ethyl]sulfanyl}-4-(trifluoromethyl)phenyl]-5-[(methyloxy)acetyl]-4,5,6,7-tetrahydro-1H-pyrazolo[4,3-c]pyridin-1-yl}-3-piperidin-1-ylpropan-2-ol]: the IC50 amounted to 380 nM. On to `CN(C)C1CCN(CCSc2cc(-c3nn(CCCN4CCC(N5CCCC5=O)CC4)c4c3CN(S(C)(=O)=O)CC4)ccc2C(F)(F)F)C1` (stereo not drawn) [Example 53, 1-{1-[3-(3-{3-[2-(3-Dimethylamino-pyrrolidin-1-yl)-ethylsulfanyl]-4-trifluoromethyl-phenyl}-5-methanesulfonyl-4,5,6,7-tetrahydro-pyrazolo[4,3-c]pyridin-1-yl)-propyl]-piperidin-4-yl}-pyrrolidin-2-one], for which the IC50 stood at 3230 nM.

For `CS(=O)(=O)N1CCc2c(c(-c3ccc(C(F)(F)F)c(SCCN4CCC(Cc5ccccc5)CC4)c3)nn2CCCN2CCC(N3CCCC3=O)CC2)C1` [Example 876, 1-[1-(3-{5-(Methylsulfonyl)-3-[3-({2-[4-(phenylmethyl)piperidin-1-yl]ethyl}sulfanyl)-4-(trifluoromethyl)phenyl]-4,5,6,7-tetrahydro-1H-pyrazolo[4,3-c]pyridin-1-yl}propyl)piperidin-4-yl]pyrrolidin-2-one], the IC50 worked out at 340 nM. In the case of `CC(C)(C)C1CCN(C[C@H](O)Cn2nc(-c3ccc(C(F)(F)F)c(SCCN4CCCC(F)(F)C4)c3)c3c2CCN(S(C)(=O)=O)C3)CC1` [Example 707, (2S)-1-{3-[3-{[2-(3,3-Difluoropiperidin-1-yl)ethyl]sulfanyl}-4-(trifluoromethyl)phenyl]-5-(methylsulfonyl)-4,5,6,7-tetrahydro-1H-pyrazolo[4,3-c]pyridin-1-yl}-3-[4-(1,1-dimethylethyl)piperidin-1-yl]propan-2-ol], the IC50 turned out to be 70 nM. In the case of `O=C(CSc1cc(-c2nn(CC(O)CN3CCC(O)(c4ccccn4)CC3)c3c2CNCC3)ccc1C(F)(F)F)N1CCOCC1` (stereo not drawn) [Example 461, 1-[2-Hydroxy-3-(3-{3-[(2-morpholin-4-yl-2-oxoethyl)sulfanyl]-4-(trifluoromethyl)phenyl}-4,5,6,7-tetrahydro-1H-pyrazolo[4,3-c]pyridin-1-yl)propyl]-4-pyridin-2-ylpiperidin-4-ol], the IC50 was 980 nM.

As for `CS(=O)(=O)N1CCc2c(c(-c3ccc(C(F)(F)F)c(SCCN4CCC(N5CCCC5)CC4)c3)nn2CC(O)CN2CCC(c3nnnn3Cc3ccccc3)CC2)C1` (stereo not drawn) [Example 896, 1-{5-(Methylsulfonyl)-3-[3-{[2-(4-pyrrolidin-1-ylpiperidin-1-yl)ethyl]sulfanyl}-4-(trifluoromethyl)phenyl]-4,5,6,7-tetrahydro-1H-pyrazolo[4,3-c]pyridin-1-yl}-3-{4-[1-(phenylmethyl)-1H-tetrazol-5-yl]piperidin-1-yl}propan-2-ol], the IC50 stood at 420 nM. `CS(=O)(=O)N1CCc2c(c(-c3ccc(C(F)(F)F)c(SCCN4CCC(O)CC4)c3)nn2CC(O)CN2CCC(Oc3ncccn3)CC2)C1` (stereo not drawn) [Example 786, 1-[2-({5-[1-{2-Hydroxy-3-[4-(pyrimidin-2-yloxy)piperidin-1-yl]propyl}-5-(methylsulfonyl)-4,5,6,7-tetrahydro-1H-pyrazolo[4,3-c]pyridin-3-yl]-2-(trifluoromethyl)phenyl}sulfanyl)ethyl]piperidin-4-ol]: the IC50 amounted to 200 nM. Under `CS(=O)(=O)N1CCc2c(c(-c3ccc(C(F)(F)F)c(SCCN4CCC(F)CC4)c3)nn2C[C@H](O)CN2CCC(c3ccccn3)CC2)C1` [Example 734, (2R)-1-{3-[3-{[2-(4-Fluoropiperidin-1-yl)ethyl]sulfanyl}-4-(trifluoromethyl)phenyl]-5-(methylsulfonyl)-4,5,6,7-tetrahydro-1H-pyrazolo[4,3-c]pyridin-1-yl}-3-(4-pyridin-2-ylpiperidin-1-yl)propan-2-ol] stands 15 nM; under `CN(CCSc1cc(-c2nn(CCCN3CCCCC3)c3c2CN(S(C)(=O)=O)CC3)ccc1C(F)(F)F)Cc1ccccc1` [Example 415, N-Methyl-2-({5-[5-(methylsulfonyl)-1-(3-piperidin-1-ylpropyl)-4,5,6,7-tetrahydro-1H-pyrazolo[4,3-c]pyridin-3-yl]-2-(trifluoromethyl)phenyl}sulfanyl)-N-(phenylmethyl)ethanamine], 4970 nM; under `CCN1CCc2c(c(-c3ccc(C(F)(F)F)c(SCC(=O)N4CCCC4)c3)nn2CC(O)CN2CCN(c3ccc(F)cc3)CC2)C1` (stereo not drawn) [Example 556, 1-(5-Ethyl-3-{3-[(2-oxo-2-pyrrolidin-1-ylethyl)sulfanyl]-4-(trifluoromethyl)phenyl}-4,5,6,7-tetrahydro-1H-pyrazolo[4,3-c]pyridin-1-yl)-3-[4-(4-fluorophenyl)piperazin-1-yl]propan-2-ol], 1250 nM. On to `CS(=O)(=O)N1CCc2c(c(-c3ccc(C(F)(F)F)c(SCCN4CCC(F)CC4)c3)nn2C[C@H](O)CN2CCN(c3cnccn3)CC2)C1` [Example 202, (2R)-1-{3-[3-{[2-(4-Fluoropiperidin-1-yl)ethyl]sulfanyl}-4-(trifluoromethyl)phenyl]-5-(methylsulfonyl)-4,5,6,7-tetrahydro-1H-pyrazolo[4,3-c]pyridin-1-yl}-3-(4-pyrazin-2-ylpiperazin-1-yl)propan-2-ol], for which the IC50 worked out at 80 nM. For `OC1CCN(CC(O)Cn2nc(-c3ccc(C(F)(F)F)c(SCCN4CCCCC4)c3)c3c2CCNC3)C1` (stereo not drawn) [Example 290, 1-[2-Hydroxy-3-(3-{3-[(2-piperidin-1-ylethyl)sulfanyl]-4-(trifluoromethyl)phenyl}-4,5,6,7-tetrahydro-1H-pyrazolo[4,3-c]pyridin-1-yl)propyl]pyrrolidin-3-ol], the 50% inhibitory concentration (IC50) is above 20000 nM. With `O=C(CC1CCNCC1)N1CCc2c(c(-c3ccc(C(F)(F)F)c(SCCN4CCC(F)CC4)c3)nn2CC(O)CN2CCCCC2)C1` (stereo not drawn) [Example 627, 1-{3-[3-{[2-(4-Fluoropiperidin-1-yl)ethyl]sulfanyl}-4-(trifluoromethyl)phenyl]-5-(piperidin-4-ylacetyl)-4,5,6,7-tetrahydro-1H-pyrazolo[4,3-c]pyridin-1-yl}-3-piperidin-1-ylpropan-2-ol] the figure was 500 nM; with `CS(=O)(=O)N1CCc2c(c(-c3ccc(C(F)(F)F)c(SCC(=O)N4CC[C@H](O)C4)c3)nn2CC(O)CN2CCC(c3ccccn3)CC2)C1` (stereo partly drawn) [Example 709, (3S)-1-({[5-{1-[2-Hydroxy-3-(4-pyridin-2-ylpiperidin-1-yl)propyl]-5-(methylsulfonyl)-4,5,6,7-tetrahydro-1H-pyrazolo[4,3-c]pyridin-3-yl}-2-(trifluoromethyl)phenyl]sulfanyl}acetyl)pyrrolidin-3-ol], 8 nM.

In general, IC50 refers to the concentration that inhibits the measured activity by half.
